US20040267283A1, “Method, device and kit for body decoration” (priority 2003, published 2004)

Columns and labels:
Solubility of the dyes [1] = assay type: physicochemical
Method: In the first part of the in-vitro skin penetration study, the color application included the use of dyes D&C Green no. 6, FD&C Blue no. 1, FD&C Yellow no. 6, and FD&C Red no. 40. All chemicals used were analytical grade, obtained from standard supply houses (Sigma, VWR, etc.). The dyes were dissolve in ddw and the solution conductivity was measured using a dedicated apparatus. The target conductivity was defined as a minimum of 1 mAmp/cm^3 current at 3 volts. If such conductivity was not attained, the dye concentration and/or the voltage were increased. See Table 1 for the solubility and conductivity of the dyes.

Solubility of the dyes [2] = assay type: physicochemical; conditions: 20 mg/ml in ethanol + 30% ddw

O=S(=O)([O-])c1ccc(N=Nc2c(O)ccc3cc(S(=O)(=O)[O-])ccc23)cc1.[Na+].[Na+] [Yellow no. 6, FD&C Yellow no. 6]
Solubility (Solubility of the dyes [1]; 20 mg/ml in water): Soluble | Solubility (Solubility of the dyes [1]; 25 mg/ml in ddw with 30% ethanol): (Poor solubility) | Solubility (Solubility of the dyes [1]; 60 mg/ml in ddw): (Was slightly insoluble) | Solubility (achieved by heating the solution) (Solubility of the dyes [2]): ddw (Solubility was achieved
